Earlier results on 1 substance are cited in patent US20100012892A1, “Tooth Whitening Compositions and Methods” (priority 2008, published 2010).

The conditions of the series: chlorite ion/chlorous acid equilibrium.

As for “chlorous acid [chlorite ion/chlorous acid]”, the pKa (commonly the negative logarithm of the acid dissociation constant) is 1.8.
